“And” between values parts separate entries of the source, which are not always exact repeats. Equal entries are not always repeated. The list shows a part of the results, in another mix than the full data. Records with an inconclusive call do not appear. The source made the active and inactive calls. Unless noted, calls follow the shape of the dose curve; as a rule, active = well fitted curve in the direction sought with a large enough effect; inconclusive = small, poorly fitted or top-dose-only effect, or another doubt; inactive = no such curve, though single readings can be large; an effect the other way counts as inactive or inconclusive.
What was measured:
[1] = target: Ubiquitin carboxyl-terminal hydrolase 1 (Homo sapiens) (UniProt O94782); assay: Inhibitors of USP1/UAF1: Pilot qHTS (AID 504865); conditions: purified USP1/UAF1, Ub-rhodamine cleavage fluorescence; at 114 µM (top of the series);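 also: rhodamine fluorescence freed from ubiquitin-rhodamine substrate followed over time; top concentration of the series differs between compounds; % is scaled to controls: 0 for no effect and ±100 for the full control effect; nearly all actives have a fitted effect of over 35% in size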
[2] = qHTS for Inhibitors of ATXN expression: Validation of Cytotoxic Assay (AID 588349); conditions: cytotoxicity counter-screen for ATXN expression inhibitors, cell viability; at 57.1 µM (top of the series); also: % is scaled to controls: 0 for no effect and ±100 for the full control effect
Procedure, shortened: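 Toxicity of test compounds toward HEK293 cells is scored from cellular ATP content measured by CellTiter Glo. Cells receive titrated doses and incubate 72 hr at 37 degrees C beforehand.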

Amino acid sequences for entries named in this document (tags omitted). A change or cut given only in a name is not applied to a line headed by its entry.
UniProt O94782: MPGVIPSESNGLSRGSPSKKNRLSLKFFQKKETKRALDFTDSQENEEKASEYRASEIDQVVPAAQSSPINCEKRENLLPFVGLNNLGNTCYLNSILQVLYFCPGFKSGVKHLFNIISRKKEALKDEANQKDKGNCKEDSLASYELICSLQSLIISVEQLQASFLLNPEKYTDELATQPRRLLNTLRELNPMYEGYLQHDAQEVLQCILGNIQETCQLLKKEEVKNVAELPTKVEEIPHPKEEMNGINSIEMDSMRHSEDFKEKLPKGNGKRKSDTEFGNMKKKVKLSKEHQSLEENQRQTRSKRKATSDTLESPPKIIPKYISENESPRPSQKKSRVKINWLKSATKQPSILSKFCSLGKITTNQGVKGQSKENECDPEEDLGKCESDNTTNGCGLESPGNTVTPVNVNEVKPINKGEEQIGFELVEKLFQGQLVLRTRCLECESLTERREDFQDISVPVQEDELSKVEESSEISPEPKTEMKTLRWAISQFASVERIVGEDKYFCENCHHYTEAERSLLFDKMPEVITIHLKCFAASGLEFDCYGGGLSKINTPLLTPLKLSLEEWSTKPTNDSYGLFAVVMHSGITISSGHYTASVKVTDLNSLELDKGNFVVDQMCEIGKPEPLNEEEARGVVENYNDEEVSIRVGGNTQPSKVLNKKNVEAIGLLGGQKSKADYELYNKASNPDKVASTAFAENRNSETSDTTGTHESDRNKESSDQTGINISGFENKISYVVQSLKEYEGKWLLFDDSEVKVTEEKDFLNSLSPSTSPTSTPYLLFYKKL
UniProt O94925: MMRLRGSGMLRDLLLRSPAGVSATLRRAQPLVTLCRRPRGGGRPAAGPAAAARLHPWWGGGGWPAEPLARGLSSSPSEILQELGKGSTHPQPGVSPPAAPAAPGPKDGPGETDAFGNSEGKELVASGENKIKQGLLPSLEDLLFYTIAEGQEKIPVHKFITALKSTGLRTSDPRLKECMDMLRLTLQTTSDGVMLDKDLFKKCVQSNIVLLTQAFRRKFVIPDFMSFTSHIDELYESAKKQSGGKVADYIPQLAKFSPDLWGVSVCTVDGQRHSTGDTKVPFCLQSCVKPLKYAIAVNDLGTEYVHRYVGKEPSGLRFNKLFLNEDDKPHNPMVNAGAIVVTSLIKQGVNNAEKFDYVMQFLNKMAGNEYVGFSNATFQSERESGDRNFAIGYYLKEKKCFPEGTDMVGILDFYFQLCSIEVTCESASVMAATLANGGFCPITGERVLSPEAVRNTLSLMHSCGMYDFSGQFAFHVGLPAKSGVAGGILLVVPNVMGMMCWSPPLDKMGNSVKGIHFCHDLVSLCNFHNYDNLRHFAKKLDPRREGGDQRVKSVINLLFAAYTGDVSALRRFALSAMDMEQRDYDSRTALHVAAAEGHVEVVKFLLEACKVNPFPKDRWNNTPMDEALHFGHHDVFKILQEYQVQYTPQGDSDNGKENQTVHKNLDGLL
UniProt P43220, whole entry, looked up: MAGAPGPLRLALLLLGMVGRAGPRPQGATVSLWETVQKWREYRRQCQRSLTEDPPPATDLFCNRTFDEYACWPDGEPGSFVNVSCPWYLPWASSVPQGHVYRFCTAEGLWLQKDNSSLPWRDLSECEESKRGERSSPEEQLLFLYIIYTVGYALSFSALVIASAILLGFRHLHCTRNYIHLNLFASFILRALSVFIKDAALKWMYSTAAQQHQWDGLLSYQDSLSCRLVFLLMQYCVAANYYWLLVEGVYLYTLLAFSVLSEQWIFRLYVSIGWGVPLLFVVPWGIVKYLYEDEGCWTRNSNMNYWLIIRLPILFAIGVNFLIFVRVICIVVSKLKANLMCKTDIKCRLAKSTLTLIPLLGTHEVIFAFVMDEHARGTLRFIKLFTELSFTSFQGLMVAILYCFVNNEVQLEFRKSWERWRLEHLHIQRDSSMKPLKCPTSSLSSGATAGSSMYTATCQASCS
UniProt P15289: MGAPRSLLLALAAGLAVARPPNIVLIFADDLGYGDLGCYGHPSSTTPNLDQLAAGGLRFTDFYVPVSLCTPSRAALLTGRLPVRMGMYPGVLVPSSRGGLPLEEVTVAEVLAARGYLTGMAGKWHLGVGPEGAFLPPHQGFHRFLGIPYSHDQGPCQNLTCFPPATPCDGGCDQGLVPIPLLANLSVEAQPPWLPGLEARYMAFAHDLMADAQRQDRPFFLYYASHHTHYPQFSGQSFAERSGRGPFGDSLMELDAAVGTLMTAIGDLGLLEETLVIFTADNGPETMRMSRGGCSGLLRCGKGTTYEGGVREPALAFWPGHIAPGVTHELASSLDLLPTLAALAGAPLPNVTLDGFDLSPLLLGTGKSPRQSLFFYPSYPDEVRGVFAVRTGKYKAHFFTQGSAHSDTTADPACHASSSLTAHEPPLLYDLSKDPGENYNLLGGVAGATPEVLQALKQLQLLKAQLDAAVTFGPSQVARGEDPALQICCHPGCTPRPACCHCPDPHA
UniProt P35557, whole entry, looked up: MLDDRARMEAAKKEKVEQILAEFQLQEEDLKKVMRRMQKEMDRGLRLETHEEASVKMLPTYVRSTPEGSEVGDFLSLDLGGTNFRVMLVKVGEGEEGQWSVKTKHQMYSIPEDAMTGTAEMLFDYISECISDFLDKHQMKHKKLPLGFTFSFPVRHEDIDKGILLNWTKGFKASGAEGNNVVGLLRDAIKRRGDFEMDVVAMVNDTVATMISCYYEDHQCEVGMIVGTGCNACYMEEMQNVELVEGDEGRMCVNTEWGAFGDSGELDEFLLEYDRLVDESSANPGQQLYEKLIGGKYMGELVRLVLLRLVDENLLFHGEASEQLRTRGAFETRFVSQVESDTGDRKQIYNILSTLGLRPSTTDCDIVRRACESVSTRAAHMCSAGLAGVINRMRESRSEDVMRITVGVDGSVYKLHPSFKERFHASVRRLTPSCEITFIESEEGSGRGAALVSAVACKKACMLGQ
UniProt Q14397: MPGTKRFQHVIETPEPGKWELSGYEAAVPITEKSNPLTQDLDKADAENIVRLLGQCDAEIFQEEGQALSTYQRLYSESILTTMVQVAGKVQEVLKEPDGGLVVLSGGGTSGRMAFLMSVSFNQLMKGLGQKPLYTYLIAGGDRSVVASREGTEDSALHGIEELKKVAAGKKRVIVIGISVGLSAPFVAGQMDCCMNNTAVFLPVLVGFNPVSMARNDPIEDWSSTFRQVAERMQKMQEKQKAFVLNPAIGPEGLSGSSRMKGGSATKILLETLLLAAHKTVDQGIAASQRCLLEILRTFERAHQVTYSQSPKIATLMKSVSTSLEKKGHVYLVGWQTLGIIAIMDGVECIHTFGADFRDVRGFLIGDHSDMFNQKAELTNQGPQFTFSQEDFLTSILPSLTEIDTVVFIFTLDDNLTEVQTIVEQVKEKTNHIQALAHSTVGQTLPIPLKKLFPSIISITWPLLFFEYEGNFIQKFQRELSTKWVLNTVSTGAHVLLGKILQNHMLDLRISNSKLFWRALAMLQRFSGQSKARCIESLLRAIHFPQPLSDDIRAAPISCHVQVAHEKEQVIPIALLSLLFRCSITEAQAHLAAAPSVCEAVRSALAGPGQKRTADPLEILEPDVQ
UniProt P16066: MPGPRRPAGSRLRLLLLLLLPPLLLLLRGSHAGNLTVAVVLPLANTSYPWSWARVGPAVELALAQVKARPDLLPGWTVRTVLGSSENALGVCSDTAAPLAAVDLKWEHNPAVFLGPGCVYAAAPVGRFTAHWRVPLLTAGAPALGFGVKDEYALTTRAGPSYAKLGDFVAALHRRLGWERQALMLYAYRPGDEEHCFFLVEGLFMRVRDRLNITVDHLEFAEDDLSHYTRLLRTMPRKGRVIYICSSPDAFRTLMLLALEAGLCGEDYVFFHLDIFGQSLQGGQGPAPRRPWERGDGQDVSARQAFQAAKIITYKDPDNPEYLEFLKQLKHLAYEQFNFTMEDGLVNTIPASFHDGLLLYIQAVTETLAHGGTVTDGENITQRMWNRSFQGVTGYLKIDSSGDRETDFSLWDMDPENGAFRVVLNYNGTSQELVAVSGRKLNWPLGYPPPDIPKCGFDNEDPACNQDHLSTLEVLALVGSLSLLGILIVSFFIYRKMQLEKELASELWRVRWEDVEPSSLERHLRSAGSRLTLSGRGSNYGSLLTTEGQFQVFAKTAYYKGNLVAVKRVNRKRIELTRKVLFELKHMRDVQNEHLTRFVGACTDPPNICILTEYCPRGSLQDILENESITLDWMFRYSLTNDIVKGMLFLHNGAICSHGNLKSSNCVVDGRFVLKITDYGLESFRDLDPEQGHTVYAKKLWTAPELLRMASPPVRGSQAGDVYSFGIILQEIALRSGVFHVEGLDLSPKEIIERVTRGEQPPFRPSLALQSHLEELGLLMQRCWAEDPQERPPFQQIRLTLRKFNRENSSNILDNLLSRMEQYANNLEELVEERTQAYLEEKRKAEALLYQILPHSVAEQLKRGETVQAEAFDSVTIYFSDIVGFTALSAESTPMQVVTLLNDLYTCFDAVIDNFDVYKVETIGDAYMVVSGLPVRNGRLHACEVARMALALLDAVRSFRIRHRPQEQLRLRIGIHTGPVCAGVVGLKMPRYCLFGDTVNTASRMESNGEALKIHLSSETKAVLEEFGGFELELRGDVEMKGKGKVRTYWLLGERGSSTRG
UniProt P20594: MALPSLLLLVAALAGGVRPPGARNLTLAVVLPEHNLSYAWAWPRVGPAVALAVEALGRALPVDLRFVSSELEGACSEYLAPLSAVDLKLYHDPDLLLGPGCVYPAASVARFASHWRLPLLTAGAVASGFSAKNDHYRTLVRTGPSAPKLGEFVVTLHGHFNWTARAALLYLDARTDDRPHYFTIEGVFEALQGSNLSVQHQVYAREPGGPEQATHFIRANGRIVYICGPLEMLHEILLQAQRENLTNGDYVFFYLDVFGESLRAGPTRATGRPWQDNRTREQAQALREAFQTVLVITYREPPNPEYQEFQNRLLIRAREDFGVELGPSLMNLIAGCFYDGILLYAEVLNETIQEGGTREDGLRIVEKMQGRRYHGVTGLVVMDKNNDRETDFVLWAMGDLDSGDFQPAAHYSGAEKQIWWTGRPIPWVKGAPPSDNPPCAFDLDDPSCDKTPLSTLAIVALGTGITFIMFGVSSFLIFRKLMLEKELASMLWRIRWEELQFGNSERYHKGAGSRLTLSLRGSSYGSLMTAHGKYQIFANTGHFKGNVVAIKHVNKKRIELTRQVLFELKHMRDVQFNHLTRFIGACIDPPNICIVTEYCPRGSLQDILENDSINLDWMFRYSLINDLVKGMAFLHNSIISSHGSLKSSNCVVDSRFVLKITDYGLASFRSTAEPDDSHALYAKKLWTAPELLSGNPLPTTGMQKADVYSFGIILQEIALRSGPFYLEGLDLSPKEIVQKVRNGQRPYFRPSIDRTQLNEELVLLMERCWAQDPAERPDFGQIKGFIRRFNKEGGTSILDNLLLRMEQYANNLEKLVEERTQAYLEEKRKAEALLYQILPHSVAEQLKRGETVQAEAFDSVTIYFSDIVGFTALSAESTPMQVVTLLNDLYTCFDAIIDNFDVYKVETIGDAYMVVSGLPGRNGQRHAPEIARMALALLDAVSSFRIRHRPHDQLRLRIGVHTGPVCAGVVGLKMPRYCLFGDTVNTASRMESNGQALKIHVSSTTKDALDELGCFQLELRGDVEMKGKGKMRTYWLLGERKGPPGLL

[3] = target: Glutaminase kidney isoform, mitochondrial (Homo sapiens) (UniProt O94925); assay: qHTS for Inhibitors of Glutaminase (GLS): LOPAC Validation (AID 624146);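 also: glutamate product detected by oxidase and peroxidase coupled Amplex red fluorescence gain; % is scaled to controls: 0 for no effect and ±100 for the full control effect; nearly all actives have a fitted effect of over 60% in size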
Procedure, shortened: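 Compounds were pin-transferred onto hKGA, after which L-glutamine (1 mM solution) and a detection mix of glutamate oxidase, HRP and Amplex Red were added. Initial and 30 min RT fluorescence reads were collected.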

[4] = target: Glucagon-like peptide 1 receptor (Homo sapiens) (UniProt P43220); assay: qHTS of GLP-1 Receptor Agonists: LOPAC Validation (AID 624148); conditions: GLP-1R agonist cell assay; at 46.1 µM (top of the series);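 also: luminescence from a luciferase reporter switched on by cAMP; 0% is about no effect; higher luminescence signal means agonism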
Procedure, shortened: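 Agonism scored as increased luciferase luminescence driven by cAMP in HEK293 clones carrying GLP-1R. Cells settled 12 hours, received compound for 4-6 hr at 37 deg C, 5% CO2, and were read after 12 min detection reagent at RT.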

[5] = qHTS of Nrf2 Activators: LOPAC Validation (AID 624149); conditions: Nrf2/ARE reporter cell assay; at 46.1 µM (top of the series); also: 0% is about no effect
Procedure, shortened: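 Following overnight seeding in 5% FBS OPTI-MEM, AREc32_Fluc cells receive compounds for a 24 hr incubation at 37 deg C with 5% CO2. Steady-Glo is added, and after 30 min at RT luminescence is recorded.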

[6] = HTS Assay for Allosteric Antagonists of the Human D2 Dopamine Receptor: Hit Validation in HTRF (AID 624455); conditions: D2 receptor cells, HTRF cAMP read-out, antagonist mode; at 46.1 µM (top of the series);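 also: stable D1 dopamine receptor cell line scored for blocking the D1 response; % is scaled to controls: 0 for no effect and ±100 for the full control effect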
Procedure, shortened: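 Validation of hits used D1 receptor stably expressed in cells with HTRF detection of response inhibition; origin screen measured calcium flux following EC80 dopamine in a force-coupled, inducible Hek293 Trex D2 cell line.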

[7] = target: Arylsulfatase A (Homo sapiens) (UniProt P15289); assay: qHTS screen for enhancers of Arylsulfatase A (ASA1): LOPAC Validation Assay (AID 720538); conditions: ASA enzyme activity, LOPAC qHTS enhancer assay; activity change, positive = activation: at 57.5 µM (top of the series)
Procedure, shortened: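 Enhancer assay in patient-derived MLD fibroblasts carrying ASA-I179S: 48 h compound exposure at 37 C, then 14 h room-temperature pNCS turnover (0.5 mM final) in lysis buffer. Read by fluorescence at 525/598 nm after NaOH stop.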

[8] = qHTS for compounds that reverse cellular toxicity of Amyloid beta (A-beta) peptide in yeast: LOPAC Validation Assay (AID 720559); conditions: yeast expressing A-beta; at 46.1 µM (top of the series);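 also: plate controls were DMSO for no effect and equimolar ferric chloride plus clioquinol rescue for full effect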
Procedure, shortened: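 Rescue of A-beta toxicity was scored as yeast growth by 600 nm absorbance after 48 hr at 30 C with compound. Normalization used DMSO (negative) and equimolar ferric chloride plus clioquinol (positive).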

[9] = qHTS for Activators of Parkin Expression: LOPAC Validation Assay (FLuc Reporter) (AID 720573;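 also: 0% = DMSO and 100% = positive control compounds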); conditions: Cell line, PRKN promoter firefly luciferase reporter, vehicle wells = 0, positive control = 100%; at 46.1 µM (top of the series)
Procedure, shortened: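 FLuc signal from Parkin-promoter coincidence reporter neuronal cells, normalized to DMSO and positive control (100%). Cells (1,500/well) pre-incubated 24 h, then exposed to LOPAC compounds in 7-point dose response for 24 h at 37 C, 5% CO2.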

[10] = target: T1, Hexokinase-4 (Homo sapiens) + Glucokinase regulatory protein (Homo sapiens) (UniProt P35557+Q14397); assay: qHTS assay for inhibitors of recombinant human GCK-GKRP interaction: Diaphorase-coupled assay (AID 743205); conditions: G6PDH/diaphorase resorufin fluorescence; at 57.5 µM (top of the series)
Procedure, shortened: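 A kinetic fluorescence read (Ex 525/Em 590 nm, every minute for 30 minutes) tracked resorufin from a G6PDH-diaphorase coupled GCK reaction. It contained 10 nM GST-GCK, 10 nM FLAG-GKRP, 5 mM glucose, 0.4 mM ATP in Hepes pH 7.6. Normalized to with/without-enzyme DMSO controls.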

[11] = target: T1, Hexokinase-4 (Homo sapiens) + Glucokinase regulatory protein (Homo sapiens); assay: qHTS assay for inhibitors of recombinant human GCK-GKRP interaction: ADP-Glo assay (AID 743206); conditions: ADP-Glo luminescence, 60 min, 0% = vehicle-only wells with enzyme present; at 76.9 µM (top of the series);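 also: plate controls were DMSO plus enzyme for no effect and no enzyme for full effect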
Procedure, shortened: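 Pin-transferred compounds meet a 15 nM GST-GCK/15 nM FLAG-GKRP/2 uM S6P mix (dispense concentrations). ATP is then added to 0.4 mM final with 5 mM glucose, and the reaction runs 60 min at room temperature. ADP is quantified luminescently.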

[12] = target: T1, Hexokinase-4 (Homo sapiens) + Glucokinase regulatory protein (Homo sapiens); assay: qHTS assay for inhibitors of recombinant human GCK-GKRP interaction: HTRF assay (AID 743207); conditions: recombinant GCK-GKRP HTRF binding, 60 min, with sorbitol-6-phosphate; at 57.5 µM (top of the series);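 also: 0% = DMSO with GCK present and -100% = DMSO wells lacking GCK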
Procedure, shortened: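 After 60 min equilibration at room temperature with anti-FLAG XL665 and anti-GST antibodies, FRET ratio (665/615 nm, excitation 320 nm) was read. Proteins: GST-GCK and FLAG-GKRP, each 5 nM, plus 2 uM S6P, pH 7.1 buffer; GCK-free wells define minimum signal.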

[13] = qHTS Assay for Identifying Gametocytocidal Compounds (AID 743244);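 also: % is scaled to controls: 0 for no effect and ±100 for the full control effect; actives lower the fluorescent signal which means gametocytes are killed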; conditions: P. falciparum 3D7 stage III-V gametocytes, alamarBlue, 72 h; max response: stronger effect = lower value
[14] = Natriuretic polypeptide receptor (hNpr1) antagonism - Pilot counterscreen GloSensor control cell line (AID 1347045; calls by dose curve; also: % is scaled to controls: 0 for no effect and ±100 for the full control effect); conditions: GloSensor cAMP control cell line, luminescence counterscreen; at 38.3 µM (top of the series)
Procedure, shortened: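 The SNP-driven cGMP luminescence signal (50 uM, 20 min, room temperature) was measured in GloSensor HEK293 control cells. Compounds were tested as a LOPAC titration series and preincubated for 30-50 min.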

[15] = target: Atrial natriuretic peptide receptor 1 (Homo sapiens) (UniProt P16066); assay: Natriuretic polypeptide receptor (hNpr1) antagonism - Pilot screen (AID 1347049; calls by dose curve;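 also: HEK293 cells with hNpr1 and GloSensor cGMP luciferase stimulated by 0.1 nM hNppA; agonist-evoked cGMP luminescence read 20 min after hNppA addition; % is scaled to controls: 0 for no effect and ±100 for the full control effect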); conditions: hNpr1 cells, antagonist mode cGMP read-out; at 57.5 µM (top of the series)
Procedure, shortened: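 Receptor antagonism read as cGMP-dependent luminescence in hNpr1/pGS-40F HEK293 cells: pre-read after 30 min compound exposure, post-read 20 min after hNppA agonist at 0.1 nM final, all at room temperature, protected from light; A-71915 titration as control.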

[16] = target: Atrial natriuretic peptide receptor 2 (Homo sapiens) (UniProt P20594); assay: Natriuretic polypeptide receptor (hNpr2) antagonism - Pilot subtype selectivity assay (AID 1347050; calls by dose curve; also: % is scaled to controls: 0 for no effect and ±100 for the full control effect); conditions: NPR2-expressing cells, cGMP antagonist-mode read-out; at 38.3 µM (top of the series)
Procedure, shortened: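 Antagonist mode: compounds (LOPAC1280, seven 1:5 dilutions) added 30 min before 1 nM hNppC stimulation of hNpr2-HEK293 cGMP-sensor cells; luminescence read before and 20 min after agonist at ambient temperature.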

CN(C(=O)Cc1ccc(Cl)c(Cl)c1)[C@H]1CCCC[C@@H]1N1CCCC1
inactive: activity change, negative = inhibition [1] -8.83% [middle of 5 runs] | activity change, negative = cytotoxicity [2] -29% and -28.2% | Potency [3] | activation [4] -1.23% and -1.31% | activation [5] -1.33% and -1.99% | activity, negative = inhibition [6] -9.1% and 4.59% | outcome [7] | growth rescue, positive = activation [8] -1.88% and -3.11% | activation [9] -19.6% and -10.6% | activity change, positive = activation [10] -2.24% and -2.34% | activity, positive = activation [11] -1.84% and -0.734% | activity change, negative = inhibition [12] 7.76% and -4.26% | max response [13] 7.49% | activity change, negative = inhibition [14] -8.45% and 4.86% | activity change, negative = inhibition [15] 0.625% and 3.47% | activity change, negative = inhibition [16] -3.38% and -1.83%
